Measurements taken from article PMC3942486, “The Ansamycin Antibiotic, Rifamycin SV, Inhibits BCL6 Transcriptional Repression and Forms a Complex with the BCL6-BTB/POZ Domain” (PLoS ONE, 2014).

Biological target: wild-type SMRT peptide, labelled with BODIPY TMR
Assay: fluorescence polarisation; fixed concentration of BODIPY TMR-labelled SMRT peptide, increasing concentration of BCL6-POZ domain; PBS, 0.05% (v/v) Triton X-100, 0.1 mg/mL BSA; room temperature; triplicate; one-site binding (hyperbola) fit

- Kd: 5 µM
Substance: BCL6-POZ domain (residues 7 to 128 of human BCL6, C8Q, C67R, C84N) (from UniProt P41182 7-128) (domain or fragment; other documents disagree on this pair)
